System: SGC-7901 tumor
Test: In vivo antitumor activity
Parameters: species or system BALB/c nude mice
Details: 2.5 mg OXA/kg iv every 2 days, tumor-bearing mice, among groups

O=C1[O][Pt]2([NH][C@@H]3CCCC[C@H]3[NH]2)[O]C1=O (relative stereo) [OXA, (1R-trans)-(1,2-cyclohexanediamine-N,N’)[oxalic acid (2-)-O,O’] platinum]
organ coefficients (heart, liver, spleen, lungs, kidneys): no significant differences

Reference: article PMC8712509 (International Journal of Nanomedicine, 2021)
